Source: patent US12227479B2, “Dihydropyridines for the treatment of cognitive impairment or traumatic brain injury” (Icahn School of Medicine at Mount Sinai, priority 2017, dated 2025)

Assays:
Aβ40 = assay: Long-term daily IP treatment of AD transgenic mice: brain Aβ40 levels; format: in vivo; settings: APP/PS1 transgenic mouse neocortex, 2.5 mg/kg/day IP for 6 months, vs Tg vehicle
Method: (§1) FIG. 6 Long-term in vivo treatment of nimodipine or Example 9 via daily IP injection at 2.5 mg/kg/day in AD transgenic mice. 2-3 months old AD transgenic mice were treated with vehicle, nimodipine or Example 9 at 2.5 mg/kg/day for 6 months via daily IP injection before subjected for behavior studies followed by biochemical analysis. Reduction in levels of insoluble Aβ40 and soluble Aβ42 with Example 9 treated Tg animal brains. […] N=5-7/group. Vehicle-treated conditions were used as controls and results were presented as percentage of the control (±SEM). One-way ANOVA was performed followed by post-hoc multiple comparison tests to determine the significance of differences between drug-treated vs DMSO control. *p<0.05, **p<0.01.

Aβ42 = assay: Long-term daily IP treatment of AD transgenic mice: brain Aβ42 levels; format: in vivo; settings: APP/PS1 transgenic mouse neocortex, 2.5 mg/kg/day IP for 6 months, vs Tg vehicle
Method: as §1

Structure (SMILES): COCCOC(=O)C1=C(C)NC(C)=C(C(=O)OC(C)C)C1c1cccc([N+](=O)[O-])c1 (racemic) [nimodipine, reference compound]
- decrease in insoluble Aβ40 levels (Aβ40): 14.2%
- decrease in insoluble Aβ42 levels (Aβ42): 11%
- decrease in soluble Aβ42 levels (Aβ42): insoluble Aβ42 levels, a 16.8% decrease in soluble Aβ42 levels,
